# PubChem BioAssay AID624464 (National Center for Advancing Translational Sciences (NCATS), 2012)
# By UniProt entry, the sequences of proteins in these tests, tags left out.
# UniProt P14416, whole entry: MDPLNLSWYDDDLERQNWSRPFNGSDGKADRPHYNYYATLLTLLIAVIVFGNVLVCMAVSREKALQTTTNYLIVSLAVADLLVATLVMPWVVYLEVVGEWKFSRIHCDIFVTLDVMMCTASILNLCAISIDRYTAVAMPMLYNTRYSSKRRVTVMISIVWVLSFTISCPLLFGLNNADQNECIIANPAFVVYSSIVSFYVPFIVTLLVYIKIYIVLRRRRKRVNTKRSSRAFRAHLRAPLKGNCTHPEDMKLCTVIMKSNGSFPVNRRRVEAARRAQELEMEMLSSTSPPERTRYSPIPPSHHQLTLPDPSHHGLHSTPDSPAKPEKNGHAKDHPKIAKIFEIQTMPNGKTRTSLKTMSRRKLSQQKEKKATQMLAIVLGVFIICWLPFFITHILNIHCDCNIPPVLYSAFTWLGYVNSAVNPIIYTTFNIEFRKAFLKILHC
# Only a part is listed here, and it is no random draw. Some tests of the compounds listed are not included; inactive here does not mean inactive elsewhere. The source made the active and inactive calls. Rule as the data show it: active = potentiation above about 50%; inconclusive = mostly about 30% to 49%; inactive = weaker than that.
# Target: D(2) dopamine receptor (Homo sapiens) (UniProt P14416)
# Test: Beta-Arrestin HTS for Positive Allosteric Modulators of the Human D2 Dopamine Receptor: Potentiators
# Conditions: DiscoveRx D2 beta-arrestin cells, luminescence, 90 min; active compounds read high; 100% = 57 uM dopamine signal
# Text: There is great interest in identifying small molecule ligands for G-protein coupled receptors (GPCRs) as nearly 50% of all FDA-approved drugs target these important receptor proteins. […] Amongst the dopamine receptors (DARs), the D2 is arguably one of the most validated drug targets in neurology and psychiatry. For instance, all receptor-based antiparkinsonian drugs primarily work via stimulating the D2 DAR, whereas all FDA-approved antipsychotic agents are antagonists of this receptor. The D2 DAR is also therapeutically targeted in other disorders such as restless legs syndrome, tardive dyskinesia, Tourette's syndrome, and hyperprolactinemia.
# To this end, a miniaturized qHTS screen was developed to be screened against the Molecular Libraries Small Molecule Repository (MLSMR). This assay seeks to identify potentiators against the D2 DAR.
# NIH Molecular Libraries Probe Production Network [MLPCN]
# NIH Chemical Genomics Center [NCGC]
# PI Name: David Sibley, National Institutes of Neurological Disorders and Stroke
# DiscoveRx D2 cells were thawed from frozen stock and seeded at 2,100 cells/ 3 uL/well media (DiscoveRx Plating Reagent 2) with MultiDrop Combi dispenser (Thermo Scientific, Logan, UT) onto white tissue culture treated 1536-well Aurora plates (Brooks Automation, Chelmsford, MA) and allowed to attach overnight at 37 deg C, 5% CO2. Next, 23 nL/well of compound solutions in DMSO were added with a pintool transfer (Kalypsis, San Diego, CA). As the positive control, 1 uL/well dopamine (EC100, 57 uM final concentration) diluted in buffer (HBSS + 10 mM HEPES + SMB + 0.1 %Tween-20) was dispensed to 1 column of each plate. EC20 (Dopamine at 50 nM final concentration) was dispensed to the rest of the plate except columns 1 &2 which were used as negative control (EC=0, buffer only), 1 uL/well as well. The cells were stimulated by compounds and dopamine for 90 minutes at 37 deg C, 5% CO2, after which 1.5 uL/well of DiscoveRx detection reagent was added with BioRAPTR FRD dispenser. The detection reagent was prepared by mixing of Galacton Star Substrate, Emerald II solution and PathHunter buffer (supplied by the assay kit) together at 1:5:19 proportion accordingly just prior to dispensing. The plates were incubated at ambient temperature for 1 hour and then the luminescent signal was read on ViewLux plate reader (PerkinElmer, Waltham, MA).
row,Compound,potentiation
1,O=C(NCC1(N2CCCCC2)CCCCC1)c1cccc(Cl)c1,inactive: -5.6%
2,COc1cccc(C(=O)NCC2(N3CCCCC3)CCCCC2)c1,inactive: -5.75%
3,COc1ccc(Cl)cc1C(=O)NCC1(N(C)C)CCCCC1,inactive: -15.5%
4,COc1cc(C(=O)NCC2(N(C)C)CCCCC2)c([N+](=O)[O-])cc1OC,inactive: -15.3%
5,CN(C)C1(CNC(=O)c2ccc(Br)cc2)CCCCC1,inactive: -25.6%
6,CN(C)c1cccc(C(=O)NCC2(N(C)C)CCCCC2)c1,inactive: -12.4%
7,CC(C)Oc1ccc(C(=O)NCC2(N(C)C)CCCCC2)cc1,inactive: -9.31%
8,O=C(OCCN1CCCC1)C(O)(c1ccccc1)c1ccccc1,inactive: -8.09%
9,COc1ccc(Br)c(C(=O)NCC2(N3CCCCC3)CCCCC2)c1,inactive: -10.3%
10,C=C(C)C#CC(O)(C(=O)OC1CCN(C)CC1)c1ccccc1 (stereo unspecified),inactive: -15.7%
11,O=C(OC1CN2CCC1CC2)C(CO)(c1ccccc1)c1ccccc1 (stereo unspecified),inactive: -12.4%
12,Cc1ccc(C(=O)NCC2(N3CCCCC3)CCCCC2)cc1,inactive: -11.4%
13,CC(C)N1C(=O)CC2(CCN(CCOC(=O)C(O)(c3ccccc3)c3ccccc3)CC2)C1=O,inactive: -1.82%
14,CCN(CC)CC(C)C(C)OC(=O)C(O)(c1ccccc1)c1ccccc1 (stereo unspecified),inactive: -4.85%
15,COc1cc(SC)ccc1C(=O)NCC1(N(C)C)CCCCC1,inactive: -7.83%
16,CN1[C@@H]2CC[C@H]1CC(OC(=O)C(O)(c1ccccc1)c1ccccc1)C2 (stereo partly specified),inactive: -10%
17,O=C(NCC1(N2CCCCC2)CCCCC1)c1cc([N+](=O)[O-])ccc1Cl,inactive: -0.515%
18,CCN1CCCC(OC(=O)C2(O)c3ccccc3C=Cc3ccccc32)C1 (stereo unspecified),inactive: -25.6%
19,Cc1cc(C(=O)NCC2(N3CCCCC3)CCCCC2)ccc1[N+](=O)[O-],inactive: 0.12%
20,O=C(NCC1(N2CCCCC2)CCCCC1)c1cccc(Br)c1,inactive: -8.71%
21,COc1ccc(C(=O)NCC2(N(C)C)CCCCC2)cc1,inactive: -8%
22,C=CCN1CCN(CCOC(=O)C(O)(c2ccccc2)c2ccccc2)CC1,inactive: 26.7%
23,O=C(NCC1(N2CCCCC2)CCCCC1)c1cc(F)c(F)cc1Cl,inactive: -2.85%
24,Cc1ccccc1C(=O)NCC1(N2CCCCC2)CCCCC1,inactive: -1.72%
25,CN(C)c1ccc(C(=O)NCC2(N(C)C)CCCCC2)cc1,inactive: -11.3%
26,CN(C)C1CCCC1OC(=O)C(O)(c1ccccc1)c1ccccc1 (stereo unspecified),inactive: -36%
